In the test the target is Polyunsaturated fatty acid lipoxygenase ALOX12 (Homo sapiens) (UniProt P18054). Put plainly: qHTS Assay for Inhibitors of 12-hLO (12-human lipoxygenase). Also: nearly all actives have a fitted effect of over 55% in size. The settings on record: purified 12-hLO, xylenol orange hydroperoxide absorbance. From the text:
Assay Provider: Holman, T.R., University of California, Santa Cruz Screening Center PI: Austin, C.P. Screening Center: NIH Chemical Genomics Center [NCGC] Human lipoxygenase 12hLO is a member of the closely related lipoxygenase family of enzymes which catalyze the site-specific oxidation of arachidonic acid to various hormone precursor molecules and as such is a candidate for drug development in a variety of disease areas, such as cancer and inflammation. Inhibition of 12hLO activity was screened by utilizing arachidonic acid as a substrate. The extent of hydroperoxide product formation was measured by a secondary chromogenic reaction in which xylenol orange (XO, Sigma-Aldrich, cat. number 39,818-7) reacts with the ferric ions produced from the reaction between the hydroperoxide and ferrous ions. The Fe(III)-XO complex is characterized with red-shifted absorbance at 560 nm. A purified preparation of human 12hLO was supplied by Professor Ted Holman, University of California, Santa Cruz.
Assay Protocol: Buffer: 25 mM Hepes pH 7.0, 0.01% Triton X-100. Reagents/Controls: Buffer in columns 3 and 4 as negative control (no enzyme). Substrate solution: 40 uM arachidonic acid (Sigma-Aldrich, St. Louis, MO) final concentration dispensed throughout the plate. Enzyme: 150 nM 12hLO final concentration in columns 1, 2, 5-48. Column 1 is neutral (100% activity). Column 2 contained pin-transferred titration of NDGA (nordihidroguaiaretic acid, Sigma-Aldrich, N 5023, top concentration 20 mM in DMSO, then 1:3 dilution in duplicate). (Dilution factor: 23 nL into 4 uL.) Chromogenic detection reagent (divalent iron/xylenol orange, Fe-XO): 200 uM xylenol orange plus 300 uM ferrous ammonium sulfate prepared freshly in 50 mM sulfuric acid. Assay Steps: Three uL of enzyme were dispensed to 1536-well Greiner black clear bottom plates. Compounds and controls (23 nL) were transferred via Kalypsys PinTool. The plates were incubated for 15 min at room temperature, and then 1 uL of substrate solution was added to start the reaction. After room temperature incubation for 30 minutes, 4 uL of Fe-XO solution was added to each well and the plates were incubated for 30 min. The absorbance at 405 and 573 nm were measured using ViewLux (Perkin-Elmer) High-throughput CCD imager and absorbance protocol settings. The 573-to-405 absorbance ratio was used to compute reaction progress.

Amino acid sequences for entries named in this document (tags omitted). A change or cut given only in a name is not applied to a line headed by its entry.
UniProt P18054: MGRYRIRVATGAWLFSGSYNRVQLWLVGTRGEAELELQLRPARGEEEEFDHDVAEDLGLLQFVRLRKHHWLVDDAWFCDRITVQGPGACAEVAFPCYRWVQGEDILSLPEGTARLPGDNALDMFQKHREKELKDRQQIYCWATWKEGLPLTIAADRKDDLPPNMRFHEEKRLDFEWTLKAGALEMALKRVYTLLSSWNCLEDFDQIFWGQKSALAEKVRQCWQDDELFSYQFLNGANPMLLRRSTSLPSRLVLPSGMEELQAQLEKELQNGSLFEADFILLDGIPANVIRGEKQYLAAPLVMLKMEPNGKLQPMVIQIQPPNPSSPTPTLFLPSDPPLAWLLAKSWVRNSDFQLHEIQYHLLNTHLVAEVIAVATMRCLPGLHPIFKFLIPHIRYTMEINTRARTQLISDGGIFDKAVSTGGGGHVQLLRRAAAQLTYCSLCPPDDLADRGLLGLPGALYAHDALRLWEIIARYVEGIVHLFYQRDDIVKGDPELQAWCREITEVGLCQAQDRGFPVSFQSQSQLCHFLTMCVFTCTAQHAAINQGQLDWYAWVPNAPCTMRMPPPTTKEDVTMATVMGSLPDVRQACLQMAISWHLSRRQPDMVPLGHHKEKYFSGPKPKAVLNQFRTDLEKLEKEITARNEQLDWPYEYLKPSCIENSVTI

Where [1] appears, read: at 57.1 µM (top of the series) unless noted.

Values joined by “and” are separate entries in the source; they are usually repeats but may differ in a detail not shown here. Equal entries are not always repeated. Only a part is listed here, and it is no random draw. Active and inactive are the calls of the source. Calls follow the shape of the dose curve; as a rule, active = well fitted inhibition curve with a large enough effect; inconclusive = small, poorly fitted or top-dose-only effect; inactive = flat fitted curve, though single readings scatter.
% is scaled to controls: 0 for no effect and ±100 for the full control effect.

In the case of `Cc1cc(SC(NC(=O)c2ccccc2)C(Cl)(Cl)Cl)nc(C(C)C)n1` (stereo not given), the activity change, negative = inhibition under setting [1] was inactive: -7.95%.

With `CN(N=O)C(=N)N[N+](=O)[O-]`, the activity change, negative = inhibition under setting [1] is inactive: -0.962%.

On to `O=C(O)[C@@H](O)c1ccc([As](=O)(O)O)cc1`, for which the activity change, negative = inhibition under setting [1] was inactive: -8.63% [at 11.4 µM].

For the molecule `O=C(COc1ccccc1)OC1CN2CCC1CC2` (stereo not given), under setting [1], the activity change, negative = inhibition was inactive: 4.52%.

For the molecule `COP1(=S)c2c(C)nn(CCC#N)c2N=C(c2ccc(F)cc2)N1C` (stereo not given), the activity change, negative = inhibition under setting [1] was inactive: 5.96%.

Regarding `CCC(C)N(CC(C)C)C(=S)SC(NC(C)=O)C(Cl)(Cl)Cl` (stereo not given), the activity change, negative = inhibition under setting [1] was inactive: -5.58%.

Consider `Cc1c2c(nc3ccccc13)SC(C(Cl)Cl)C2` (stereo not given), for which the activity change, negative = inhibition under setting [1] was inactive: -4.89%.

`O=C(OC1CN2CCC1CC2)C12CC3CC(CC(C3)C1)C2` (stereo not given): under setting [1], the activity change, negative = inhibition was inactive: 5.28%.

With `Cc1ccc2nc3c(c(C)c2c1)CC(C(Cl)Cl)S3` (stereo not given), the activity change, negative = inhibition under setting [1] was inactive: -11.1%.

For `CCN(CC)C(=S)SC(NC=O)C(Cl)(Cl)Cl` (stereo not given), the activity change, negative = inhibition under setting [1] is inactive: 1.79%.

Regarding `O=[N+]([O-])c1cc([N+](=O)[O-])c(-c2ccn[nH]2)s1`, the activity change, negative = inhibition under setting [1] is inactive: -8.22%.

For `ClCCSc1nnc(-c2cccnc2)o1`, under setting [1], the activity change, negative = inhibition is inactive: -5.7%.

As to `O=[As]c1ccc(S(=O)(=O)NCCO)cc1` (stereo not given), the activity change, negative = inhibition under setting [1] was inactive: 1.05% [at 11.4 µM].

Take `[N-]=[N+]=NCC(N)=O`: under setting [1], the activity change, negative = inhibition is inactive: 8.95% [at 11.4 µM].

Turning to `O=[As](O)(O)c1ccc([As](=O)(O)O)cc1`, the activity change, negative = inhibition under setting [1] is inactive: 5.79% [at 11.4 µM].

For the molecule `CCOP1(=S)c2c(C)nn(CCC#N)c2N=C(c2ccccc2F)N1C` (stereo not given), the activity change, negative = inhibition under setting [1] is inactive: 2.01%.

On to `CCOP1(=S)c2c(C)nn(CCC#N)c2N=C(c2ccc(F)cc2)N1C` (stereo not given), for which, under setting [1], the activity change, negative = inhibition was inactive: -2.4%.

`O=[N+]([O-])c1ccc2c(c1)nnn2O`: the activity change, negative = inhibition under setting [1] is inactive: 2.24%.

In the case of `Cc1cccc(OCC(=O)OC2CN3CCC2CC3)c1` (stereo not given), the activity change, negative = inhibition under setting [1] is inactive: -0.891%.

`COc1cc(C2NCCC3(OCCO3)C2(C)C)cc(OC)c1OC` (stereo not given): the activity change, negative = inhibition under setting [1] is inactive: -3.03%.

With `CCOP(=O)(Nc1cccc2ccccc12)OCC`, the activity change, negative = inhibition under setting [1] is inactive: -0.728%.

As for `CN(C(=O)Cc1ccc(Cl)c(Cl)c1)[C@@H]1CC[C@@]2(CCCO2)C[C@H]1N1CCCC1`, under setting [1], the activity change, negative = inhibition is inactive: 6.69%.

As to `O=C(CC(=O)c1ccccc1)O[C@H]1CN2CCC1CC2`, under setting [1], the activity change, negative = inhibition is inactive: 6.5% [at 11.4 µM].

As to `Cc1ccc(NCCc2c([N+](=O)[O-])cc([N+](=O)[O-])cc2[N+](=O)[O-])cc1`, the activity change, negative = inhibition under setting [1] is inactive: -15.2%.

As to `NS(=O)(=O)Cc1ccc([As](=O)(O)O)cc1`, the activity change, negative = inhibition under setting [1] was inactive: -1.3% [at 11.4 µM].

With `Clc1n[nH]nc1-c1nn[nH][15n]1`, under setting [1], the activity change, negative = inhibition is inactive: -7.49%.

Consider `O=P1(Nc2ccccn2)COc2ccccc2OC1`, for which the activity change, negative = inhibition under setting [1] is inactive: -2.43%.

On to `CN(CCCl)Cc1cc(Cl)c(NC2=NCCN2)c(Cl)c1`, for which the activity change, negative = inhibition under setting [1] is inactive: 1.49%.

`CN(C(=O)Cc1ccc(Cl)c(Cl)c1)[C@@H]1CCCC[C@H]1N1CCCC1`: under setting [1], the activity change, negative = inhibition was inactive: -1.59% [middle of 4 runs].

For `Cc1nn(-c2ccccc2)c2c1P(=O)(N1CCOCC1)N(C)C(c1ccccc1)=N2` (stereo not given), the activity change, negative = inhibition under setting [1] is inactive: -3.67%.

Consider `O=P1(Nc2ccc(Br)cn2)COc2ccccc2OC1`, for which the activity change, negative = inhibition under setting [1] is inactive: 0.672%.

Take `Cc1ccc(OCC(=O)OC2CN3CCC2CC3)cc1` (stereo not given): the activity change, negative = inhibition under setting [1] was inactive: 1.35%.

On to `O=P1(Nc2ncccn2)COc2ccccc2OC1`, for which the activity change, negative = inhibition under setting [1] was inactive: 1.67%.

As to `[N-]=[N+]=Nc1ccc([As](=O)(O)O)cc1`, the activity change, negative = inhibition under setting [1] is inactive: -1.07% [at 11.4 µM].

Turning to `Cc1cc([N+](=O)[O-])cc([N+](=O)[O-])c1O`, under setting [1], the activity change, negative = inhibition is inactive: -4.54%.

Take `O=C(OC1CN2CCC1CC2)c1cccc(Cl)c1` (stereo not given): the activity change, negative = inhibition under setting [1] was inactive: 1.11%.

As for `C(Cc1nn[nH]n1)Cc1nn[nH]n1`, the activity change, negative = inhibition under setting [1] is inactive: -1.15%.

In the case of `CC(=O)NC(SC(=S)N(C)C)C(Cl)(Cl)Cl` (stereo not given), the activity change, negative = inhibition under setting [1] is inactive: -3.07%.

`c1nnnn1CCn1cnnn1`: the activity change, negative = inhibition under setting [1] was inactive: -0.0464%.

As to `O=P(Nc1nccs1)(c1ccccc1)c1ccccc1`, the activity change, negative = inhibition under setting [1] is inactive: 2.29%.

For `CC(C)C(=O)NC(Sc1ccccc1)C(Cl)(Cl)Cl` (stereo not given), the activity change, negative = inhibition under setting [1] was inactive: -0.898%.

Consider `C[C@@H](O)COc1ccc([As](=O)(O)O)cc1N`, for which the activity change, negative = inhibition under setting [1] was inactive: 5.68% [at 11.4 µM].

In the case of `CN1CCC[C@H](OC(=O)C(c2ccccc2)c2ccccc2)C1`, the activity change, negative = inhibition under setting [1] is inactive: 7.71% [at 11.4 µM].

As to `O=P1(Nc2nc3ccc(Cl)cc3s2)COc2ccccc2O1` (stereo not given), the activity change, negative = inhibition under setting [1] was inactive: -11.8%.

On to `CCOC(=O)NC(Sc1ccccc1)C(Cl)(Cl)Cl` (stereo not given), for which the activity change, negative = inhibition under setting [1] was inactive: -2%.

As for `CCC(=O)N1C2C3N(C(=O)CC)C1C1N(C(=O)CC)C(C(N1C(=O)CC)N3C(=O)CC)N2C(=O)CC`, under setting [1], the activity change, negative = inhibition is inactive: 8.46%.

On to `COC(=O)c1cc2c(s1)N=C(c1ccccc1)N(C)P2(=O)N1CCOCC1` (stereo not given), for which the activity change, negative = inhibition under setting [1] was inactive: -1.63%.

On to `CC(=O)NC(SC(=S)N(CC(C)C)CC(C)C)C(Cl)(Cl)Cl` (stereo not given), for which the activity change, negative = inhibition under setting [1] is inactive: 0.103%.

With `CCOP(=O)(Nc1ccccc1)OCC`, the activity change, negative = inhibition under setting [1] was inactive: 11.1%.

As for `Cc1cc(SC(NC(=O)c2ccc(F)cc2)C(Cl)(Cl)Cl)ncn1` (stereo not given), the activity change, negative = inhibition under setting [1] was inactive: -4.36%.

As to `CN(C(=O)Cc1ccc(Cl)c(Cl)c1)[C@H]1CCCC[C@@H]1N1CCCC1`, the activity change, negative = inhibition (at 0.00818 µM (top of the series)) was inactive: 1.88%; the activity change, negative = inhibition (at 57.1 µM (top of the series)) was inactive: 1.72% and inactive: -3.37% and inactive: -4.87%.

Take `C(Cc1nn[nH]n1)c1nn[nH]n1`: the activity change, negative = inhibition under setting [1] was inactive: 0.448% [at 11.4 µM].

For the molecule `CCN(N=Nc1nonc1N)c1nonc1N`, the activity change, negative = inhibition under setting [1] is inactive: 0.225%.

Regarding `[N-]=[N+]=NCC(O)CN=[N+]=[N-]` (stereo not given), the activity change, negative = inhibition under setting [1] is inactive: 3.25% [at 11.4 µM].

For the molecule `CN1CCCC(OC(=O)C(c2ccccc2)c2ccccc2)C1` (stereo not given), the activity change, negative = inhibition under setting [1] was inactive: 19.7%.

On to `O=[N+]([O-])c1ccc(C[As](=O)(O)O)cc1`, for which the activity change, negative = inhibition under setting [1] was inactive: -1.54% [at 11.4 µM].

Take `NCC[C@@H](N)CSP(=O)(O)O`: the activity change, negative = inhibition under setting [1] was inactive: -3.05% [at 11.4 µM].

For the molecule `Oc1ccccc1CNc1ccccn1`, under setting [1], the activity change, negative = inhibition is inactive: 12.9%.

Consider `Cc1c2non([O-])c-2c(C)[n+](=O)[n+]1[O-]`, for which, under setting [1], the activity change, negative = inhibition is inactive: -12.1%.

Turning to `O=C(NC(Sc1ccncn1)C(Cl)(Cl)Cl)c1ccccc1` (stereo not given), under setting [1], the activity change, negative = inhibition is inactive: -0.461%.

As to `CC(C)CC(=O)NC(Sc1ccc(Cl)cc1)C(Cl)(Cl)Cl` (stereo not given), the activity change, negative = inhibition under setting [1] was inactive: -3.27%.

On to `CCc1nc2c(n1)c1c(non1O)c1c2no[n+]1[O-]`, for which the activity change, negative = inhibition under setting [1] is inactive: -3.84%.

For `CC(=O)N1C2C3N(C(C)=O)C1C1N(C(C)=O)C(C(N1C(C)=O)N3C(C)=O)N2C(C)=O`, the activity change, negative = inhibition under setting [1] was inactive: -1.6%.

Consider `O=[N+]([O-])c1cccc2n[nH]nc12`, for which, under setting [1], the activity change, negative = inhibition is inactive: -4.54%.

In the case of `CC1CCN(C(=O)Oc2c(Cl)cc(Cl)c3cccnc23)CC1`, under setting [1], the activity change, negative = inhibition is inactive: -0.137%.

On to `CC(=O)C1=CCCC2CCC1N2` (stereo not given), for which the activity change, negative = inhibition under setting [1] is inactive: -0.174% [at 0.00818 µM].

As for `O=C(CO)Nc1ccc([As](=O)(O)O)cc1`, the activity change, negative = inhibition under setting [1] was inactive: -2.7% [at 11.4 µM].

For `CN(C)C(=O)OCCc1n(C)cc[n+]1C`, the activity change, negative = inhibition under setting [1] was inactive: 3.28%.

Take `CN(C(=O)Cc1ccccc1)[C@@H]1CC[C@@]2(CCCO2)C[C@H]1N1CCCC1`: the activity change, negative = inhibition under setting [1] is inactive: 3.46%.

The values are drawn from PubChem BioAssay AID1452 (National Center for Advancing Translational Sciences (NCATS), 2008).
